Test results as given in patent US20250034165A1, “COMPOUND CONTAINING CYCLOALKYL OR HALOALKYL” (CHIA TAI TIANQING PHARMACEUTICAL GROUP CO., LTD., priority 2021, published 2025).

Chains of the proteins cited; added tags and fusions are not shown. Lines headed by an entry give the natural chain unless they say otherwise; changes in a name come on top. A line that says so, or that is headed by a name, gives the form on record, which may keep a tag or linker. Residues count along the entry.
UniProt P00533, 25-1210 T790M/C797S/L858R limits assumed: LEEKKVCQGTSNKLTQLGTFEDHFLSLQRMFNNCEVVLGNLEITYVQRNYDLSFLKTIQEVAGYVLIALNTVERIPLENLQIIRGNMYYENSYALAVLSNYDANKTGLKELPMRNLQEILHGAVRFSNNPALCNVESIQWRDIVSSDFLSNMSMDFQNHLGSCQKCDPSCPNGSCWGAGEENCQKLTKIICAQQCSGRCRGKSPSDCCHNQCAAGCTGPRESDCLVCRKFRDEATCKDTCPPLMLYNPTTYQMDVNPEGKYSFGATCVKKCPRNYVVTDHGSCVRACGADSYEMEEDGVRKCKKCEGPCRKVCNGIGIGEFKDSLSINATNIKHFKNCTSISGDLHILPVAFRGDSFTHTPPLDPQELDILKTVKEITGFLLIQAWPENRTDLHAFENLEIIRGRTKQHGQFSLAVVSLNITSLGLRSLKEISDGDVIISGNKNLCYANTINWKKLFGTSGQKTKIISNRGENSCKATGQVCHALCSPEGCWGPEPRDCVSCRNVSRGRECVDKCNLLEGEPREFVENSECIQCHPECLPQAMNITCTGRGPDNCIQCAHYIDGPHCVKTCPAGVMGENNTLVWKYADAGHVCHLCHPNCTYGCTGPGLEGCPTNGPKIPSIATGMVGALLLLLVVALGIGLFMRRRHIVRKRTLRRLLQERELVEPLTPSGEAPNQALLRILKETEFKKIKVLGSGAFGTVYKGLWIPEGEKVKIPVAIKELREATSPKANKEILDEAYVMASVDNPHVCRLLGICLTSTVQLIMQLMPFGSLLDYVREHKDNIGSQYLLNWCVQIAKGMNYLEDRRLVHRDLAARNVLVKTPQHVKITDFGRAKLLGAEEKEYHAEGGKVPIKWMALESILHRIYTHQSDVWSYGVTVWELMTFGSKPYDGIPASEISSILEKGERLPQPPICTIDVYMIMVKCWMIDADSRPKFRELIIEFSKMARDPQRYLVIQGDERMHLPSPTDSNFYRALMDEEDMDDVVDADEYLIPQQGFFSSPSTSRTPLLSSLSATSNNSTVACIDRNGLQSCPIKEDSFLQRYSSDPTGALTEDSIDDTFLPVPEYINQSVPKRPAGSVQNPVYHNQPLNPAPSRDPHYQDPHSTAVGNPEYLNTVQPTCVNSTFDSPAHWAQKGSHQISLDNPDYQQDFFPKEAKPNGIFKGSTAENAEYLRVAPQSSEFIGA
UniProt P00533, with tags, fused parts or gaps limits assumed, stated change not applied: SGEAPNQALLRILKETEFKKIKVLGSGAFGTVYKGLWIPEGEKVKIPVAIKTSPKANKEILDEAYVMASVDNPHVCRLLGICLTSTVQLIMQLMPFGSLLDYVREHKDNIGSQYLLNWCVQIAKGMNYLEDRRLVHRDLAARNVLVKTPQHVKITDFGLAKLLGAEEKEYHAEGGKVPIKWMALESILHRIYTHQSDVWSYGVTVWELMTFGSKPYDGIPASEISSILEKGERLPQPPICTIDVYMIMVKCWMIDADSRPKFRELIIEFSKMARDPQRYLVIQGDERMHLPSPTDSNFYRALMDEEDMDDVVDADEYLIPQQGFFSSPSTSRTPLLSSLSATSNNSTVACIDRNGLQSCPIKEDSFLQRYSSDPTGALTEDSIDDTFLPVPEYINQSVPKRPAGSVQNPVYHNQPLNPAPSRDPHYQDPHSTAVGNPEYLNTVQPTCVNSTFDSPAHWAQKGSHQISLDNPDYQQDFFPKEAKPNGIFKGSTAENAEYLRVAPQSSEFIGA

Experiments:
[1] = test system: BAF3-EGFR (del19/T790M/C797S) cells; assay: Inhibition of proliferation of BAF3-EGFR (Del19/T790M/C797S) cells, CCK-8; conditions: read-out: BAF3(EGFR T790M Del19 C797S) cell inhibitory activity IC50, 72 h
Experimental: (§1) A flask of BAF3-EGFR (del19/T790M/C797S) cells in the logarithmic growth phase and good conditions was taken, and the cells were collected and added to a centrifuge tube. 20 μL of cells were taken and counted, and the required number of cells (mL) was pipetted and centrifuged at 1200 rpm for 3 min. The supernatant was discarded, and an appropriate amount of plating medium (RPMI medium+10% FBS) was added to adjust the cell density to 1.0×10^5 cells/mL. The cells were seeded on a 96-well plate at 100 μL/well using a multi-channel pipette and cultured in a cell incubator at 37° C., 5% CO2 with saturated humidity. After overnight incubation, compounds were loaded using a nanoliter pipettor, 2 duplicate wells were set for each concentration, and cells without compound added were used as negative controls. After 72 h, CCK-8 was added at 10 μL/well for incubation for 2 h, then absorbance was measured at 450 nm with an Envision plate reader, and inhibition rate was calculated.
(§2) Inhibition rate (%)=(mean value of negative control group-mean value of experimental group)/(mean value of negative control group−mean value of blank group)×100%.
(§3) A dose-response curve was fitted by four-parameter analysis, with the logarithm of compound concentration serving as abscissa and inhibition rate serving as ordinate, such that IC50 was calculated.

[2] = biological target: EGFR (L858R/T790M/C797S) (Homo sapiens (Human), UniProt P00533, C797S/L858R/T790M); assay: Inhibitory activity for EGFR (L858R/T790M/C797S) kinase; conditions: read-out: EGFR(L858R/T790M/C797S) (IC50); ATP 5 μM
Experimental: A 50 ng/μL EGFR (L858R/T790M/C797S, BPS) stock solution was diluted with a kinase buffer (50 mM HEPES, 10 mM MgCl2, 2 mM DTT, 1 mM EGTA, 0.01% Tween 20), and 6 μL of 1.67× working solution at 0.00167 ng/μL (final concentration: 0.001 ng/μL) was added to each well. Different compounds dissolved in DMSO were added to wells using a nanoliter pipettor, resulting in the final concentrations of the compounds of 10 nM to 0.0024 nM (4-fold gradient, 7 concentrations in total), and blank control wells (without enzyme) and negative control wells (with enzyme, plus vehicle DMSO) were set, 2 replicate wells for each concentration. After enzyme was reacted with the compound or vehicle for 30 min, 5×ATP at 25 μM (final concentration: 5 μM, Sigma) prepared with a kinase buffer was mixed with 5× substrate at 0.5 μM (final concentration: 0.1 μM, ULight-poly GT, PerkinElmer) at a ratio of 1:1 (v:v), and the mixture was added to each well at 4 μL/well. After being sealed with a film, the plate was incubated at room temperature for 2 h, and then 5 μL of 4×EDTA at 40 mM (final concentration: 10 mM) was added to each well. After the plate was incubated for 5 min at room temperature, 5 μL of 4× detection reagent at 8 nM (final concentration: 2 nM, Eu-anti-phospho-tyrosine antibody, PerkinElmer) was added to each well. After being incubated at room temperature for 1 h, the plate was read using a PerkinElmer Envision multi-mode microplate reader (excitation: 320 nm, emission: 665 nm), and IC50 was calculated by four-parameter fitting.

[3] = test system: BAF3-EGFR (L858R/T790M/C797S) cells; assay: Inhibition of proliferation of BAF3-EGFR (L858R/T790M/C797S) cells, CCK-8; conditions: read-out: BAF3(EGFR T790M L858R C797S) cell inhibitory activity IC50, 72 h
Experimental: as §1, with “EGFR (L858R/T790M/C797S)” for “BAF3-EGFR (del19/T790M/C797S)”, “1.5×10^5” for “1.0×10^5”
as §2, §3

[4] = biological target: EGFR (d746-750/T790M/C797S) (Homo sapiens (Human), UniProt P00533, C797S/DEL746-750/T790M); assay: Inhibitory activity for EGFR (d746-750/T790M/C797S) kinase; conditions: read-out: EGFR(d19/T790M/C797S) (IC50); ATP 5 μM
Experimental: 1.5 Screening for Inhibitory Activity for EGFR (d746-750/T790M/C797S) Kinase
A 50 ng/μL EGFR (d746-750/T790M/C797S, BPS) stock solution was diluted with a kinase buffer (50 mM HEPES, 10 mM MgCl2, 2 mM DTT, 1 mM EGTA, 0.01% Tween 20), and 6 μL of 1.67× working solution at 0.05 ng/μL (final concentration: 0.03 ng/μL) was added to each well. Different compounds dissolved in DMSO were added to the wells using a nanoliter pipettor, resulting in the final concentrations of the compounds of 10 nM to 0.0024 nM (4-fold gradient for 7 concentrations in total), and blank control wells (without enzyme) and negative control wells (with enzyme, plus vehicle DMSO) were set, 2 replicate wells for each concentration. After enzyme was reacted with the compound or vehicle for 30 min, 5×ATP at 25 μM (final concentration: 5 μM, Sigma) prepared with a kinase buffer was mixed with 5× substrate at 0.5 μM (final concentration: 0.1 μM, ULight-poly GT, PerkinElmer) at a ratio of 1:1 (v:v), and the mixture was added to each well at 4 μL/well. After being sealed with a film, the plate was incubated at room temperature for 2 h, and then 5 μL of 4×EDTA at 40 mM (final concentration: 10 mM) was added to each well. After the plate was incubated for 5 min at room temperature, 5 μL of 4× detection reagent at 8 nM (final concentration: 2 nM, Eu-anti-phospho-tyrosine antibody, PerkinElmer) was added to each well. After being incubated at room temperature for 1 h, the plate was read using a PerkinElmer Envision multi-mode microplate reader (excitation: 320 nm, emission: 665 nm), and IC50 was calculated by four-parameter fitting.

Work on `Cc1cc2cc(n1)-c1cnn(C)c1OCCC[C@@H](C1CC1)CN1C(=NC2=O)Nc2ccc(CN3CCN(C)CC3)cc21` yielded an IC50 [1] of less than 1 nM, an IC50 [2] of 0.031 nM and an IC50 [3] of less than 5 nM. For the same compound, the IC50 [4] was 0.02 nM.

`Cc1cc2cc(n1)-c1cnn(C3CC3)c1OCCC[C@@H](C)CN1C(=NC2=O)Nc2ccc(NC3CCN(C)CC3)cc21` gave an IC50 [1] of less than 1 nM, an IC50 [2] of 0.026 nM and an IC50 [3] of less than 5 nM. The IC50 [4] was 0.019 nM.

In the case of `Cc1cc2cc(n1)-c1cnn(C3CC3)c1OCCC[C@@H](C)CN1C(=NC2=O)Nc2cc(NC3COC3)ccc21`, the IC50 [2] is reported as 0.081 nM and the IC50 [4] is reported as 0.062 nM.

Compound `Cc1cc2cc(n1)-c1cnn(C)c1OCCC[C@@H](C1CC1)CN1C(=NC2=O)Nc2cc(NC3COC3)ccc21` has an IC50 [2] of 0.018 nM and an IC50 [4] of 0.022 nM.

Work on `Cc1cc2cc(n1)-c1cnn(C)c1OCCC[C@@H](C1CC1)CN1C(=NC2=O)Nc2cc(NC(C)C3COC3)ccc21` (single isomer, unassigned) yielded an IC50 [1] of less than 1 nM, an IC50 [2] of 0.062 nM and an IC50 [3] of less than 5 nM.

In the case of `CCN(CC)CCNc1ccc2c(c1)N1C[C@H](C3CC3)CCCOc3c(cnn3C)-c3cc(cc(C)n3)C(=O)N=C1N2`, the IC50 [1] is reported as less than 1 nM, the IC50 [2] is reported as 0.021 nM and the IC50 [3] is reported as less than 5 nM. The IC50 [4] was 0.02 nM.

`CNCCNc1ccc2c(c1)N1C[C@H](C3CC3)CCCOc3c(cnn3C)-c3cc(cc(C)n3)C(=O)N=C1N2` gave an IC50 [2] of 0.022 nM and an IC50 [4] of 0.021 nM.

With `Cc1cc2cc(n1)-c1cnn(C)c1OCCC[C@@H](CC1CC1)CN1C(=NC2=O)Nc2cc(NC3COC3)ccc21` the IC50 [2] was 0.28 nM and the IC50 [4] was 0.056 nM.
